Results: US20220306659A1, “COMPOUND INHIBITING AND INDUCING DEGRADATION OF EGFR AND ALK” (BEIJING TIDE PHARMACEUTICAL CO., LTD., priority 2019, published 2022)

Protein sequences, listed by entry. Tags and fused reporters are not part of them. Chains listed by the source or under a name are the forms on record and can include a tag or linker.
UniProt P00533, whole entry T790M/C797S/L858R: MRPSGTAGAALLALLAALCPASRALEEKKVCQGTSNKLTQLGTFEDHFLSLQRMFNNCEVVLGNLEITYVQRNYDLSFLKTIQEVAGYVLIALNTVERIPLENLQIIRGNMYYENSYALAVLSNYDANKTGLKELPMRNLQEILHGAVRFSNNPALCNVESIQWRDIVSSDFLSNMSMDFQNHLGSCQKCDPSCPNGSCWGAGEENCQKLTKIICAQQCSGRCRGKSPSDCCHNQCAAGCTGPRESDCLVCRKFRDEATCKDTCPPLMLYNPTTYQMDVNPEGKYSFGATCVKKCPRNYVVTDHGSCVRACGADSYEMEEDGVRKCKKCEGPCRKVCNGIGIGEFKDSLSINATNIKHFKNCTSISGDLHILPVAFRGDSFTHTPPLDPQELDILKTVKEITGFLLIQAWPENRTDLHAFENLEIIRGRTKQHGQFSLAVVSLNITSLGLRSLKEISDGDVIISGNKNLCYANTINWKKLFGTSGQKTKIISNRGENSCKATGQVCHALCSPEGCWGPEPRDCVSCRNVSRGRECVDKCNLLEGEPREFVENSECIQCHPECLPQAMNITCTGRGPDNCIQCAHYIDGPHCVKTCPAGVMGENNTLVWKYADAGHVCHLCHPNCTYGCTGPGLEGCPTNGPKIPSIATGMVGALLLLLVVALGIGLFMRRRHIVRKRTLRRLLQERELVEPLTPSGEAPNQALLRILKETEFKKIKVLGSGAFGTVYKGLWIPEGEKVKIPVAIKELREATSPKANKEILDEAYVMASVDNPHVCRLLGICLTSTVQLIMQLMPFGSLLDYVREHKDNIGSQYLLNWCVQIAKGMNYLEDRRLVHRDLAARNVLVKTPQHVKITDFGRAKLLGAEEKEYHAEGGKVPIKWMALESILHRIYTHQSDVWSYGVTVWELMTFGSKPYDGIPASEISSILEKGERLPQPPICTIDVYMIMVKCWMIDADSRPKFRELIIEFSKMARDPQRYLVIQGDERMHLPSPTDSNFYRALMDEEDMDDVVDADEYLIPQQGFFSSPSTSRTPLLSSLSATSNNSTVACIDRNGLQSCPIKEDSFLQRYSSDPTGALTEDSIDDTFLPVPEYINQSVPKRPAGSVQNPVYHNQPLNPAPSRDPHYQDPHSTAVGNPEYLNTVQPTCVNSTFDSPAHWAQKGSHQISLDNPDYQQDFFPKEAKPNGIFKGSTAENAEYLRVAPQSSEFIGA
UniProt P00533, with tags, fused parts or gaps C797S/DEL746-750/T790M: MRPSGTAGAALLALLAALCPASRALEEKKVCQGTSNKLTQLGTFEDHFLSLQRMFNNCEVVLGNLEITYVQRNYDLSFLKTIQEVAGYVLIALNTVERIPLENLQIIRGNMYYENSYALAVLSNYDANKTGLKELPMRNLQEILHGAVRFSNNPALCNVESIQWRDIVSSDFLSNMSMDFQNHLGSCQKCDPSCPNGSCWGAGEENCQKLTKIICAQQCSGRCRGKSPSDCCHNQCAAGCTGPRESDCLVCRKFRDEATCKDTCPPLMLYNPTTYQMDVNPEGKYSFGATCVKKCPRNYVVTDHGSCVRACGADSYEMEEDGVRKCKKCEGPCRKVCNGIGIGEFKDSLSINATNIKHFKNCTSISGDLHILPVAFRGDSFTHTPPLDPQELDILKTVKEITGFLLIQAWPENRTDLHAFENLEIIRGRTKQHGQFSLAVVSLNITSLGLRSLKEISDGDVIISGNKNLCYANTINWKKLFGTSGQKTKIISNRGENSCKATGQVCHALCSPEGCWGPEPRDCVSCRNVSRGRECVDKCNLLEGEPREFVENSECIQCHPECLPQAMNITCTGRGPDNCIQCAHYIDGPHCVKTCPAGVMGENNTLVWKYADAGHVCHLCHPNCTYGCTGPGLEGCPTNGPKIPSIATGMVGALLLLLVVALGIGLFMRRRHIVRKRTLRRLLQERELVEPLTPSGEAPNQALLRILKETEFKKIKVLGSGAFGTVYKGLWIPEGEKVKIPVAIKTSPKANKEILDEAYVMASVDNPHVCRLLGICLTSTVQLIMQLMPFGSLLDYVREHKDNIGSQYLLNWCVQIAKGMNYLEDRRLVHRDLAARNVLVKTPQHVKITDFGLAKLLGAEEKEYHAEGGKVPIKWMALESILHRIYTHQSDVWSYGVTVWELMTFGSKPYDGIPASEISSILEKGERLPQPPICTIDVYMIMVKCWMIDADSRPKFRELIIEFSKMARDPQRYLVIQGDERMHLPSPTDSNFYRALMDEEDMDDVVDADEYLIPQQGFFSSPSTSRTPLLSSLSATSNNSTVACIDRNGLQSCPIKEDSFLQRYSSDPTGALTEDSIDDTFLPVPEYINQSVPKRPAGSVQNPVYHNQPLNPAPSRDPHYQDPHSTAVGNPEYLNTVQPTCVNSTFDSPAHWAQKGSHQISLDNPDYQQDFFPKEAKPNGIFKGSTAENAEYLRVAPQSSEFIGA
UniProt Q9UM73, whole entry: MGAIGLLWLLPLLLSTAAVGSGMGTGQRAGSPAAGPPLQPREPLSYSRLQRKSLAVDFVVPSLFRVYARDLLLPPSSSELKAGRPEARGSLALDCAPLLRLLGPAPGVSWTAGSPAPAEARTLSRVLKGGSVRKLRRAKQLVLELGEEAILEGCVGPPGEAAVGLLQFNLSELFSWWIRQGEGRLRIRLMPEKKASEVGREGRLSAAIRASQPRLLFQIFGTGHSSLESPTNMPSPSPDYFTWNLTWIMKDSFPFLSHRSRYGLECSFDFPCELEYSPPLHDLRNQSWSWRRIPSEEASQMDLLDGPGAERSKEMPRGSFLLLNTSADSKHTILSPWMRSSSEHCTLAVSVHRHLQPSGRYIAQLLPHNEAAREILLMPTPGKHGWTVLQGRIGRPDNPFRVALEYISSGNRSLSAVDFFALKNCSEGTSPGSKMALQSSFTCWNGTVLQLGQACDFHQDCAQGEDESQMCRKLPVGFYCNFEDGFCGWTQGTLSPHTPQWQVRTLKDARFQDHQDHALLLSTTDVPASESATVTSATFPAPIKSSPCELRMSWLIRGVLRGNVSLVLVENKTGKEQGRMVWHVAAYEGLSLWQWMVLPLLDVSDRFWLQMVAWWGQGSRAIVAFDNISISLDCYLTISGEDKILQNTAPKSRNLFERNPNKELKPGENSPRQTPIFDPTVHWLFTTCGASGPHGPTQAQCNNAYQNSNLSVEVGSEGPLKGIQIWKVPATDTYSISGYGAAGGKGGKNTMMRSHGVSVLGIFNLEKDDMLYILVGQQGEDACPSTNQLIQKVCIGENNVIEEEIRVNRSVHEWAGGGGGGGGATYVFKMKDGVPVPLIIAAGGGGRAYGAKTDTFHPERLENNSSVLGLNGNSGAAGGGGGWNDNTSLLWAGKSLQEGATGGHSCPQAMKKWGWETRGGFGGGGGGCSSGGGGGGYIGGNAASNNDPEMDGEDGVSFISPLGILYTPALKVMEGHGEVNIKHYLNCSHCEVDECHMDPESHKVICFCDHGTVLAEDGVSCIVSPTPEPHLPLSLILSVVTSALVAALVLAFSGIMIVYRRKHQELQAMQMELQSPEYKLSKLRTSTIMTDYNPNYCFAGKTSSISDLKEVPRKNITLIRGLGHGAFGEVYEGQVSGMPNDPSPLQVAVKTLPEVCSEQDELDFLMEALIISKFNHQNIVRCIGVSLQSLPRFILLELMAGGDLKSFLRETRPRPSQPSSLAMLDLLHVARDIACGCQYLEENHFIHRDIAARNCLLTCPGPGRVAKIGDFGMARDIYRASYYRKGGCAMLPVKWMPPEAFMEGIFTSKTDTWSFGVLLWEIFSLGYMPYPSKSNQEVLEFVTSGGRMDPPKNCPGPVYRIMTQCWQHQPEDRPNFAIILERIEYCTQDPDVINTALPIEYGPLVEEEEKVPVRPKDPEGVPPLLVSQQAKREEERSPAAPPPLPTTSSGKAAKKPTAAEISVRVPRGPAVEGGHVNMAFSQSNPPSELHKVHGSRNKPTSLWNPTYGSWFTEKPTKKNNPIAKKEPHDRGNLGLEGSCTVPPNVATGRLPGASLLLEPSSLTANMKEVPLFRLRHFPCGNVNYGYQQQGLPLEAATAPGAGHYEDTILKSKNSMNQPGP

Assays:
Format in all cases: cell-based
[1] = target: Ba/F3(EGFR^Del19/T790M/C797S) cells (Homo sapiens, UniProt P00533, DEL746-750/T790M/C797S, cells depend on it); test: Assay of activity on Ba/F3 cells (CTG, 72 h); conditions: read-out: IC50 (nM) Ba/F3 (EGFR^Del19/T790M/C797S)
Ba/F3(EML4-ALK) cells = Ba/F3(EML4-ALK) cells (Homo sapiens, UniProt Q9UM73); test: Assay of activity on Ba/F3(EML4-ALK) cells (CTG, 72 h); conditions: read-out: IC50 (nM) Ba/F3(EML4-ALK)
[2] = target: Ba/F3(EGFR^L858R/T790M/C797S) cells (Homo sapiens, UniProt P00533, T790M/C797S/L858R, cells depend on it); test: Assay of activity on Ba/F3 cells (CTG, 72 h); conditions: read-out: IC50 (nM) Ba/F3 (EGFR^L858R/T790M/C797S)

| SMILES | GI50 [1] [nM] | GI50 (Ba/F3(EML4-ALK) cells) [nM] | GI50 [2] [nM] |
| --- | --- | --- | --- |
| COc1cc(N2CCC3(CCN(CCCCCC#Cc4cccc5c4C(=O)N(C4CCC(=O)NC4=O)C5=O)CC3)CC2)c(C)cc1Nc1ncc(Br)c(Nc2ccc3nccnc3c2P(C)(C)=O)n1 (centres unmarked) | 1 to 100 | 101 to 200 | – |
| COc1cc(N2CCC3(CCNCC3)CC2)c(C)cc1Nc1ncc(Br)c(Nc2ccc3nccnc3c2P(C)(C)=O)n1 | – | – | 101 to 200 |
| COc1cc(N2CCC(N3CCN(CCOCC#Cc4cccc5c4CN(C4CCC(=O)NC4=O)C5=O)CC3)CC2)c(C)cc1Nc1ncc(Br)c(Nc2ccc3nccnc3c2P(C)(C)=O)n1 (centres unmarked) | 1 to 100 | – | 1 to 100 |
